Reference: ChEMBL document CHEMBL1139871, “Selective urokinase-type plasminogen activator inhibitors. 4. 1-(7-sulfonamidoisoquinolinyl)guanidines” (J Med Chem, 2007)

Biological target: Urokinase-type plasminogen activator (Homo sapiens, UniProt P00749)

| pKi | Structure (SMILES) |
| --- | --- |
| 6.89 | NC(N)=Nc1ncc(Cl)c2ccc(S(=O)(=O)N3CCCC3)cc12 |
| 7.96 | CN(C1(C(=O)O)CCCC1)S(=O)(=O)c1ccc2c(Cl)cnc(N=C(N)N)c2c1 |
| 6.80 | NC(N)=Nc1nccc2ccc(S(=O)(=O)Nc3ccccc3)cc12 |
| 7.27 | CN(CC(=O)O)S(=O)(=O)c1ccc2c(Cl)cnc(N=C(N)N)c2c1 |

pKi: −log10 of the molar value.
